One block for each compound: values may come before it.
Assays:
[1] = Mouse tissue distribution assay; details: mice, oral gavage 10 mg/kg
Description: For the mouse tissue distribution assay, ICR mice weighing 20 g to 25 g were used and fasted overnight. 8 male mice and 4 female mice were administered via oral gavage at 10 mg/kg. Blood samples as well as tissue samples including stomach, small intestine, and large intestine were collected at 30 minutes, 1 hour, 4 hours, and 8 hours after the administration. Two male mice and one female mouse were used at each time point. Whole blood samples were placed in EDTA-K2 tubes for anticoagulation, and then centrifuged (at 1,500 g to 1,600 g) at 4°C for 10 minutes to separate plasma. All plasma and tissue samples were stored at -80°C until analysis. Compound concentrations in plasma and homogenate samples (stomach, small intestine, and large intestine) from mice were measured by LC-MS/MS, and area under the concentration-time curve and tissue/plasma area under the curve ratio were calculated based on the compound concentrations at different time points. [Table 5] Results of Mouse Tissue Distribution Assay

The chains behind the UniProt entries cited, without tags or fusion partners. A line that says so, or that is headed by a name, gives the form on record, which may keep a tag or linker. Residues count along the entry.
UniProt Q08499, 303-809 limits assumed: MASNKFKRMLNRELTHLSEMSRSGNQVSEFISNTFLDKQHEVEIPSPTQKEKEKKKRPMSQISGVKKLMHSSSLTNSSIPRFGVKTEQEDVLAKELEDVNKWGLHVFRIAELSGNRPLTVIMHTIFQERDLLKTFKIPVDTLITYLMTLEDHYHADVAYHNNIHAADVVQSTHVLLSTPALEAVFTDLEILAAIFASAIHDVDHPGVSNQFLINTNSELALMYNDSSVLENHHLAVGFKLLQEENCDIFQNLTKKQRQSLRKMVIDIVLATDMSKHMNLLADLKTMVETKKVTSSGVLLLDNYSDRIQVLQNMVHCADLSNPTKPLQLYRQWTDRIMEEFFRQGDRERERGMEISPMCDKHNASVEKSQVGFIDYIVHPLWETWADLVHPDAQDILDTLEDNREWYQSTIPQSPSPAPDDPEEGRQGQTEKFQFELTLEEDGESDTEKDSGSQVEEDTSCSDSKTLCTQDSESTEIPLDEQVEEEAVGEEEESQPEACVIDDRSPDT
UniProt Q07343, 1-564 with tags or gaps: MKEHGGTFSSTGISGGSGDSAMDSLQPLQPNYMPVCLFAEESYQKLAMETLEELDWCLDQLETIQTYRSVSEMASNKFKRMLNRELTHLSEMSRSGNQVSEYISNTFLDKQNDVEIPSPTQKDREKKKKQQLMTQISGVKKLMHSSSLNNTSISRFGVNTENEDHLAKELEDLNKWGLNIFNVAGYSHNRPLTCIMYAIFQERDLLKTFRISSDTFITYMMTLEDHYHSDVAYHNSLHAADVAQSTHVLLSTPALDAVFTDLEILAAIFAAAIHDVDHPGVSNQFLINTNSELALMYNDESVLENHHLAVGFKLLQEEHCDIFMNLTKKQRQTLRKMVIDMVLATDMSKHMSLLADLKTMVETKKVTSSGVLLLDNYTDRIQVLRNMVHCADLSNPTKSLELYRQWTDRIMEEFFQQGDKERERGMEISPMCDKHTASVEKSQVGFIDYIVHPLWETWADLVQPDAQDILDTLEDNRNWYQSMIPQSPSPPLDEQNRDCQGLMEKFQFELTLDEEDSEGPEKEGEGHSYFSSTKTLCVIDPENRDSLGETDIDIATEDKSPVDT

[2] = system: LPS-induced TNF-α secretion by human PBMCs; assay: Inhibition of LPS-induced TNF-α secretion by human PBMCs (ELISA); details: read-out: IC50 for inhibition of LPS-induced TNF-α secretion by human PBMCs; LPS 0.1 µg/mL, 4 hours
Description: Fresh blood samples were diluted with an equal volume of PBS (BI, 02-024-01ACS) for later use. 15 mL of Lymphoprep (stem cell, 7851) was added into a 50 mL centrifuge tube, and 30 mL of diluted blood sample was slowly layered onto the Lymphoprep without disturbing the interface. The mixture was centrifuged at 1,000 g for 25 minutes at room temperature with the brake off. The buffy coat containing PBMCs was collected into a new 50 mL centrifuge tube, washed twice with 50 mL of DPBS, and centrifuged at 350 g for 10 minutes. The supernatant was discarded. The cells were resuspended in complete RPMI 1640 medium and adjusted to a density of 1.5×10^6 cells/mL. A 96-well cell culture plate was taken, and 100 µL of the PBMC suspension was added to each well. The test compounds were prepared as 4× working solutions at a series of concentrations using complete RPMI 1640 medium, and 50 µL of the compound working solution was added to the corresponding wells. […] The expression of TNF-α was measured using a Human TNF-α ELISA Kit (Cat: 555212) from BD Biosciences. An inhibition rate of the test compounds on the LPS-induced TNF-α secretion by the human PBMCs was calculated. Based on the inhibition rates at different concentrations of the compounds, IC50 values for the inhibition of the TNF-α secretion by the LPS-stimulated human PBMCs were measured by curve fitting using GraphPad Prism 8 software. […]

[3] = Pharmacokinetic study in cynomolgus monkeys, oral gavage; details: oral gavage 10 mg/kg; for AUC0-t / CL/F / Cmax: plasma
Description: For the pharmacokinetic study in monkeys, male cynomolgus monkeys weighing 5 kg to 7 kg were used and fasted overnight. Three cynomolgus monkeys were administered with the compound via oral gavage at 10 mg/kg. Blood samples were collected before the administration, and 15 minutes, 30 minutes, 1 hour, 2 hours, 4 hours, 8 hours, and 24 hours after the administration. Whole blood samples were placed in EDTA K2 tubes for anticoagulation, and then centrifuged (at 1,500 g to 1,600 g) at 4°C for 10 minutes to separate plasma. All the samples were stored at -80°C until analysis. 20 µL of plasma collected at each time point was mixed with 400 µL of acetonitrile-methanol solution containing internal standard. After vortex mixing, the mixture was centrifuged at 3,700 rpm for 10 minutes. 50 µL of the supernatant was added to 100 µL of water, followed by vortex-mixing. An appropriate amount of the mixed solution was subjected to LC-MS/MS analysis. The main plasma pharmacokinetic parameters were calculated using a noncompartmental model. [Table 3] Pharmacokinetic Results in Cynomolgus Monkeys After Oral Gavage Administration

PDE4D2 = PDE4D2 (Homo sapiens, UniProt Q08499); assay: Enzyme activity inhibition assay against PDE4D2 (AMP-Glo Assay kit); details: read-out: PDE4D2 IC50, 60 minutes at room temperature
Description: (§1) Inhibitory activities of the compounds of the present disclosure against PDE4B2 and PDE4D2 can be detected using AMP-Glo™ Assay kit (Promega, V5011). First, all compounds were prepared as stock solution at 20 or 25 mM in DMSO, followed by 3-fold serial dilution in DMSO on a compound plate to obtain 200×working solutions. Meanwhile, 200×Rolipram (2 mM) was prepared as a positive control, and 100% DMSO was served as a blank control. The compound plate was centrifuged at 1,000 rpm for 1 minute. 20 nL of the compound working solution was transferred to a 384-well assay plate (Greiner, 784075) using Echo 550, and the plate was sealed and then centrifuged at 1,000 rpm for 1 minute. PDE4B2 enzyme (BPS bioscience, 60042) and PDE4D2 enzyme (BPS bioscience, 60048) were diluted to 2×working solutions using ice-cold PDE assay buffer. […] AMP was detected using the AMP-Glo™ Assay kit (Promega, V5011): 4 µL of AMP-Glo Reagent I was added to each well of the 384-well assay plate, followed by incubation at room temperature for 60 min; then 8 µL of AMP Detection Reagent was added to each well of the 384-well assay plate, followed by incubation at room temperature for 60 minutes. RLU (relative light unit) signals were read using an Envision 2105 instrument. […] The experimental results were imported into GraphPad Prism software, and the IC50 value of each compound was calculated by curve fitting. […]

human HepG2 cells = assay: In vitro toxicity evaluation on human HepG2 cells (CTG); details: read-out: IC50 on HepG2 cells; 72 hours incubation, CTG luminescence
Description: HepG2 cells in a logarithmic growth phase were trypsinized and resuspended in MEM complete medium containing 10% FBS. 10,000 cells were seeded in each well of a 96-well plate (no cells were seeded in the blank control group) with a seeding volume of 100 µL/well. The plates were incubated at 37°C in a CO2 incubator for 24 hours.
The test compounds were prepared as 50 mM stock solutions in DMSO, serially diluted to appropriate concentrations in DMSO, and further 3-fold serially diluted with cell culture medium to obtain 2× working solutions. 100 µL of the test compound working solution was added to the corresponding wells of the 96-well plate (n=2). Meanwhile, a blank control group (cell culture medium containing 0.5% DMSO) and a DMSO control group (cell culture medium containing 0.5% DMSO) were set. After the plate was incubated at 37°C in a CO2 incubator for 72 hours, 100 µL of the supernatant was aspirated from each well and discarded. Then, 50 µL of CTG (Promega, G9243) was added to each well. The plate was shaken on a microplate shaker for 5 minutes, allowed to stand for 10 min, and the luminescence value was read using a microplate reader. The inhibition rate of the test compounds on the human HepG2 cells was calculated, and the IC50 values of the compound on human HepG2 cells were fitted based on the inhibition rate of the compound at different concentrations. Inhibition rate=100%-(test compound-blank control group)/(DMSO group-blank control group) × 100%. Table 4. In vitro Toxicity Evaluation Results of Compounds on HepG2 cells

PDE4B2 = PDE4B2 (Homo sapiens, UniProt Q07343); assay: Enzyme activity inhibition assay against PDE4B2 (AMP-Glo Assay kit); details: read-out: PDE4B2 IC50, 60 minutes at room temperature
Description: as §1

[4] = Large Intestine AUC(0-t) / plasma AUC(0-t)
[5] = Small Intestine AUC(0-t) / plasma AUC(0-t)
[6] = Stomach AUC(0-t) / plasma AUC(0-t)

tissue/plasma ratio [1, 4]: 8.44
Area under the concentration-time curve AUC(0-t) ([1]; Large Intestine): 105,410 h*ng/g
Area under the concentration-time curve AUC(0-t) ([1]; Plasma): 12,487 h*ng/ml
tissue/plasma ratio [1, 5]: 4.89
Area under the concentration-time curve AUC(0-t) ([1]; Small Intestine): 61,044 h*ng/g
tissue/plasma ratio [1, 6]: 17.85
Area under the concentration-time curve AUC(0-t) ([1]; Stomach): 222,882 h*ng/g
AUC0-t [3]: 9,793 h·ng/mL
CL/F [3]: 1,006 mL/h/kg
Cmax [3]: 2,061 ng/mL
Compound: [O-][S@+]1CCc2nc(N3CC4(CC(c5ncc(Cl)cn5)C4)C3)nc(NC3(CO)CCC3)c21
IC50 [2]: 63.4 nM

tissue/plasma ratio [1, 4]: 2.66
Area under the concentration-time curve AUC(0-t) ([1]; Large Intestine): 42,506 h*ng/g
Area under the concentration-time curve AUC(0-t) ([1]; Plasma): 15,998 h*ng/ml
tissue/plasma ratio [1, 5]: 2.77
Area under the concentration-time curve AUC(0-t) ([1]; Small Intestine): 44,273 h*ng/g
tissue/plasma ratio [1, 6]: 3.05
Area under the concentration-time curve AUC(0-t) ([1]; Stomach): 48,722 h*ng/g
IC50 (PDE4D2): 45.1 nM
IC50 (PDE4B2): 14.5 nM
AUC0-t relative to Control Compound 1 [3]: twice
AUC0-t [3]: 19,549 h·ng/mL
CL/F [3]: 506 mL/h/kg
Cmax [3]: 2,426 ng/mL
Compound: [2H]C([2H])(O)C1(Nc2nc(N3CC4(CC(c5ncc(Cl)cn5)C4)C3)nc3c2[S@+]([O-])CC3)CCC1
IC50 (human HepG2 cells): > 200000 nM
IC50 [2]: 41.4 nM

Compound: [2H]C1C2(CN(c3nc4c(c(NC5(CO)CCC5)n3)[S@+]([O-])CC4)C2)CC1([2H])c1ncc(Cl)cn1 (some centres unmarked)
IC50 (human HepG2 cells): > 200000 nM

Compound: (R)-2-(6-(5-chloropyrimidin-2-yl)-6-deutero-2-azaspiro[3.3]hept-2-yl)-4-((1-(hydroxymethyl)cyclobutyl -2,2,3,3,4,4-d6)amino)-6,7-dihydrothieno[3,2-d]pyrimidin-5-oxide
IC50 (human HepG2 cells): > 200000 nM

Compound: [2H]C1([2H])C([2H])([2H])C(CO)(Nc2nc(N3CC4(CC(c5ncc(Cl)cn5)C4)C3)nc3c2[S@+]([O-])CC3)C1([2H])[2H]
IC50 (human HepG2 cells): > 200000 nM

Compound: [2H]C1([2H])C[S@@+]([O-])c2c(NC3(CO)CCC3)nc(N3CC4(CC(c5ncc(Cl)cn5)C4)C3)nc21
IC50 (human HepG2 cells): > 200000 nM

Compound: (R)-2-(6-(5-chloropyrimidin-2-yl)-2-azaspiro[3.3]hept-2-yl)-4-((1-(hydroxymethyl)cyclobutyl -3,3-d2)amino)-6,7-dihydrothieno[3,2-d]pyrimidin-5-oxide
IC50 (human HepG2 cells): > 200000 nM

Compound: (R)-2-(6-(5-chloropyrimidin-2-yl)-2-azaspiro[3.3]hept-2-yl)-4-((1-(hydroxymethyl-d2)cyclobutyl-3,3-d2)amino)-6,7-dihydrothieno[3,2-d]pyrimidin-5-oxide
IC50 (human HepG2 cells): > 200000 nM

From patent EP4825859A1, “DEUTERATED HETEROCYCLIC COMPOUND ACTING AS PDE4B INHIBITOR AND USE THEREOF” (dated 2026)
